The subject of this assay is P. falciparum strain Pf3D7^0087/N9. The following applies: in vivo.

In the case of Zinc Pyrithione, the “parasitemia in humanized NSG mouse model” value is recorded as “reduces parasitemia” and the “reduction of parasitemia of the mice” value was 51%.

The record behind these values is patent US20260256822A1, “ENTRY-MODULATING AGENTS AND USES THEREFOR” (priority 2022, published 2026).
